Structures are written as SMILES.

For orientation: IC50 means the concentration at which inhibition is half-maximal. The low end stands for greater potency in that assay, the high end for weaker potency in that assay.

The target in experiment [1] is T1, Sialidase-4 (Homo sapiens, UniProt Q8WWR8).
T1 sequence (Q8WWR8 whole entry): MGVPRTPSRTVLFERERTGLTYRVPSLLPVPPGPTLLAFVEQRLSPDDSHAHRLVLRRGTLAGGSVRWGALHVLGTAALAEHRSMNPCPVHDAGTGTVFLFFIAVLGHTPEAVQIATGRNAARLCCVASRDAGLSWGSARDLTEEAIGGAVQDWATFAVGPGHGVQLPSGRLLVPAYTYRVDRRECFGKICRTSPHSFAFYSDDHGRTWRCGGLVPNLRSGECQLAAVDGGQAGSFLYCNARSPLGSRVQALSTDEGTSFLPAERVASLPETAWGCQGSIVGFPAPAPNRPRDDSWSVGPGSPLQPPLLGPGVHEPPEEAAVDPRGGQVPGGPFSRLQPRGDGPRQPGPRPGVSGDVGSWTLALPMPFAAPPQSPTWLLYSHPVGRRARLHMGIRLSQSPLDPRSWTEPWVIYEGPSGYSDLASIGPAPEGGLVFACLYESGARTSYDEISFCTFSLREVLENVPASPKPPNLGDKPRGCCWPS
Put plainly: Inhibition of human Neu4 expressed in HEK293T cells using 4MU-Neu5Ac as substrate incubated for 30 mins by HPLC analysis. Format: cell-based, HEK-293T.

The target in experiment [2] is T1, Sialidase-4. Put plainly: Inhibition of human Neu4 expressed in HEK293T cells using GM3 as substrate incubated for 30 mins by HPLC analysis. The class given is cell-based, HEK-293T.

In the case of `CC(=O)N[C@H]1[C@H]([C@H](O)[C@H](O)CO)OC(C(=O)O)=C[C@@H]1N=C(N)N` [ZANAMIVIR], the IC50 against Sialidase-4 [1] amounted to 392 µM; against Sialidase-4 [2], 1040 µM.

Consider `CC(=O)N[C@H]1[C@H]([C@H](O)[C@H](O)CO)OC(C(=O)O)=C[C@@H]1O` [NEU5AC2EN], for which the IC50 on Sialidase-4 [1] and at Sialidase-4 [2] was 50 µM each time.

(Values after ChEMBL document CHEMBL3817735 (J Med Chem, 2016).)
